Test results as given in PMC12366525, “Characterization of allosteric modulators that disrupt androgen receptor co-activator protein-protein interactions to alter transactivation–Drug leads for metastatic castration resistant prostate cancer” (SLAS discovery : advancing life sciences R & D, 2023).

Amino acid sequences for entries named in this document (tags omitted). Residues count along the entry.
UniProt P10275, whole entry T878A: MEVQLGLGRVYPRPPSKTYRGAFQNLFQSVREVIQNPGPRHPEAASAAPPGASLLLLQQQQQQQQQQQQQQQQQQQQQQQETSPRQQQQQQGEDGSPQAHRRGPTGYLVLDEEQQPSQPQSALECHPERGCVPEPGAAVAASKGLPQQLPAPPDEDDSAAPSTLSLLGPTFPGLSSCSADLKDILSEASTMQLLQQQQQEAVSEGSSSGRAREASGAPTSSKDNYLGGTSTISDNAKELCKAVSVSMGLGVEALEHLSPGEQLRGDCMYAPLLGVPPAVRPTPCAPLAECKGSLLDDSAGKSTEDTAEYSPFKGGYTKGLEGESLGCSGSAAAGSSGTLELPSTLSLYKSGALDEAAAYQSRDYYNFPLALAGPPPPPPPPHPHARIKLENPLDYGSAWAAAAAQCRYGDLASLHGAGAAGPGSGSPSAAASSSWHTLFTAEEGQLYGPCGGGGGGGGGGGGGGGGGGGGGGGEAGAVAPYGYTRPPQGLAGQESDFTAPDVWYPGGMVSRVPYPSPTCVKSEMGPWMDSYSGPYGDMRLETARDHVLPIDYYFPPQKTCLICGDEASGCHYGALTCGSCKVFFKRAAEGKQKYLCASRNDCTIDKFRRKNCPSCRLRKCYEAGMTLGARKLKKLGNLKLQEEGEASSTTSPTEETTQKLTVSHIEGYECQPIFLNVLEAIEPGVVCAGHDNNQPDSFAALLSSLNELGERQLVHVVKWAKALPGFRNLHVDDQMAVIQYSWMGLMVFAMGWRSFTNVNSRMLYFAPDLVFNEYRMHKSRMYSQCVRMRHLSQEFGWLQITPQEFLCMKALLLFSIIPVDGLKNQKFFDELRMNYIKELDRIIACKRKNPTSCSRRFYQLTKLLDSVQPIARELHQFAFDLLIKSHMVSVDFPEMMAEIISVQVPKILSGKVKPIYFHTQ
UniProt P10275, 663-920 limits assumed: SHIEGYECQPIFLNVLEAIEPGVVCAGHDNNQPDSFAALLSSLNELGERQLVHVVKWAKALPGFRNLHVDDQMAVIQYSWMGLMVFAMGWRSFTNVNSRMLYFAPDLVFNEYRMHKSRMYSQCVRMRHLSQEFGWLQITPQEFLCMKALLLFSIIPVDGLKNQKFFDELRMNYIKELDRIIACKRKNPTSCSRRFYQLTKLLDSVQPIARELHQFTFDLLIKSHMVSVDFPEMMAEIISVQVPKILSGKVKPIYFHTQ

How the values were obtained:
[1] = system: 22Rv1 cells; experiment: Prostate cancer cell line growth inhibition assay, 22Rv1; details: read-out: 22Rv1 GI50 (AR+); 72 h
[2] = system: PC cell lines positive (LNCaP, C4–2, & 22Rv1 cells) or negative (PC-3 & DU-145) for AR; experiment: Prostate cancer cell line growth inhibition assays, panel statements; format: cell-based; details: 72 h
[3] = system: LNCaP cells; experiment: Prostate cancer cell line growth inhibition assay, LNCaP; details: read-out: LNCap GI50 (AR+); 72 h
[4] = target: full length AR (Homo sapiens, UniProt P10275, T878A); experiment: PSA-6.1 luciferase reporter assay in C4–2 CRPC cells; details: read-out: C4–2 PSA6.1-Luc Reporter IC50; C4–2 cells; 50 nM DHT; 24 h
[5] = system: DU-145 cells; experiment: Prostate cancer cell line growth inhibition assay, DU-145; details: read-out: DU145 GI50 (AR−); 72 h
[6] = system: U-2 OS cells; experiment: AR-TIF2 PPIB cell loss (Hoechst stained nuclei); details: 4.5 h compound exposure
[7] = system: C4–2 cells; experiment: Prostate cancer cell line growth inhibition assay, C4–2; details: read-out: C4–2 GI50 (AR +); 72 h
[8] = system: PC-3 cells; experiment: Prostate cancer cell line growth inhibition assay, PC-3; details: read-out: PC3 GI50 (AR−); 72 h
[9] = target: AR-TIF2 PPI (Homo sapiens, UniProt P10275); experiment: AR-TIF2 PPI biosensor (PPIB) HCS assay, inhibition of DHT-induced AR-TIF2 PPI formation; format: cell-based; details: S1 analogs vs S1–1; S3–15 vs S3–14
[10] = system: HEK 293 cells; experiment: M2H viability counter screen; format: cell-based; details: read-out: M2H viability CS GI50; cytotoxicity counter screen

| Structure (SMILES) | GI50 [1] [µM] | Cytotoxicity in AR positive relative to AR negative PC cell lines [2] | GI50 [3] [µM] | IC50 [4] [µM] | GI50 [5] [µM] | AR-TIF2 PPIB Cell Loss [6] [µM] | GI50 [7] [µM] | GI50 [8] [µM] | Reduction in relative potency versus parent hit in AR-TIF2 PPIB assay formats [9] [fold] | GI50 ([2]; read-out: GI50 in any PC cell line, all 5 PC cell lines, ≥50% growth inhibition not achieved at ≤100 μM) [µM] | GI50 [10] [µM] |
| --- | --- | --- | --- | --- | --- | --- | --- | --- | --- | --- | --- |
| Cc1ccccc1-c1cc(O)c2c(c1)CN(c1cc(N)ncn1)CCO2 | 22.9 | equipotent against all 5 PC cell lines | 5.01 | 32.5 | 12.2 | >100 | 5.12 | 20.7 |  |  |  |
| COc1cc(-c2ccc(C)s2)cc2c1OCCN(c1nc(C(N)=O)cs1)C2 | > 100 |  | > 100 | 37 | > 100 | >100 | > 100 | > 100 | 4 | > 100 | > 100 |
